This assay addresses PDE10 from pig striatum (Sus scrofa, UniProt A0A287B941). The experiment in a line: Inhibition of PDE10 from pig striatum ([3H]-cAMP SPA). The format is biochemical. To be noted: read-out: Inhibition of PDE10 from pig IC50; pig striatum preparation; 0.1 μM [3H]-cAMP; 37° C., 30 minutes.

The chains behind the UniProt entries cited, without tags or fusion partners. Residues count along the entry.
UniProt A0A287B941, 1-1069: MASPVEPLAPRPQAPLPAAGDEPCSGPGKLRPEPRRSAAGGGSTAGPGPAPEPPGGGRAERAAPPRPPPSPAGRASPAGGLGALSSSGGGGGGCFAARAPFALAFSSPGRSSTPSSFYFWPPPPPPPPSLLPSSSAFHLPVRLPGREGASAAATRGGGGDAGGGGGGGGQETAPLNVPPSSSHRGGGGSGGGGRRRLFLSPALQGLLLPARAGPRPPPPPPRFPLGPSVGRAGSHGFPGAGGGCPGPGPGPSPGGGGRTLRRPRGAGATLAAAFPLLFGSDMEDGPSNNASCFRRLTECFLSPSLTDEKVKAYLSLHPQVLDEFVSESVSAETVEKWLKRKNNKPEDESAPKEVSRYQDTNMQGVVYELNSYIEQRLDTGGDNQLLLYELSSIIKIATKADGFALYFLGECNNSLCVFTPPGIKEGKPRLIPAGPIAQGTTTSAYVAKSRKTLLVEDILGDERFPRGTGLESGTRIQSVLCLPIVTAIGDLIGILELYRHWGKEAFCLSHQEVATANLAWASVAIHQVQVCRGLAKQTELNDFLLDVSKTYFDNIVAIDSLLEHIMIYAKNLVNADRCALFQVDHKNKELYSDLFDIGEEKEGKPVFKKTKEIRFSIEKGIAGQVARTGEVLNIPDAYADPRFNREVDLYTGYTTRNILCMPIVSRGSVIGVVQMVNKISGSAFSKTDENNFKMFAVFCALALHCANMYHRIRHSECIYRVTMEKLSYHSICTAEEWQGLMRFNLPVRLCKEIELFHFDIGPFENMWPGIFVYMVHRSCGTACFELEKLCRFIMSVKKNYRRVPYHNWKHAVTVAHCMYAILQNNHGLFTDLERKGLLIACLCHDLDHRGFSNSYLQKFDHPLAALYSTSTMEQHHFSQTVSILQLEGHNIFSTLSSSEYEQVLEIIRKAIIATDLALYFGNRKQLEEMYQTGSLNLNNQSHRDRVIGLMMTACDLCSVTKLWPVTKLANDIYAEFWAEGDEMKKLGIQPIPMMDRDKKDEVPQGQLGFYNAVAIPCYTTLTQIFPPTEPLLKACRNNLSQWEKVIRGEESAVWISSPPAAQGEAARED

Structures are written as SMILES.

As for `CCCc1nc(C)c2c[n+]([O-])c3ccc(OC)nc3n12`, the IC50 turned out to be 23 nM.

The record behind these values is US7550465B2, “Pyrido[3,2-e]pyrazines, their use as inhibitors of phosphodiesterase 10, and processes for preparing them” (Elbion GmbH, priority 2006, dated 2009).
